Like-named read-outs stand apart in the source and are kept apart here.

Sequences of proteins named here, by UniProt entry; tags and fusion partners are left off. Residues count along the entry.
UniProt P28335, whole entry I156V/N158S/I160V, looked up: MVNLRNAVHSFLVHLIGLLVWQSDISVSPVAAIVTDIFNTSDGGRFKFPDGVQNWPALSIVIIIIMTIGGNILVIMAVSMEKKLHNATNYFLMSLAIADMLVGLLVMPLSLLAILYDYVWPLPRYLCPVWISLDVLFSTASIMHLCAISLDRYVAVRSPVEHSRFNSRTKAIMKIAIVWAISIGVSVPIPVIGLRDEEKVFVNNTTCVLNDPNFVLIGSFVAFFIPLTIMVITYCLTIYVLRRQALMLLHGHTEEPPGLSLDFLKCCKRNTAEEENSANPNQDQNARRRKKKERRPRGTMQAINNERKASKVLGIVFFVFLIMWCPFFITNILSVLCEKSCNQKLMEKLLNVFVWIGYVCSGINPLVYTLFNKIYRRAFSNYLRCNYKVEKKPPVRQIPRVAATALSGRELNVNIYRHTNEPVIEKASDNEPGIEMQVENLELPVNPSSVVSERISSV
UniProt P28335, 33-458 I156V/N158S/I160V limits assumed: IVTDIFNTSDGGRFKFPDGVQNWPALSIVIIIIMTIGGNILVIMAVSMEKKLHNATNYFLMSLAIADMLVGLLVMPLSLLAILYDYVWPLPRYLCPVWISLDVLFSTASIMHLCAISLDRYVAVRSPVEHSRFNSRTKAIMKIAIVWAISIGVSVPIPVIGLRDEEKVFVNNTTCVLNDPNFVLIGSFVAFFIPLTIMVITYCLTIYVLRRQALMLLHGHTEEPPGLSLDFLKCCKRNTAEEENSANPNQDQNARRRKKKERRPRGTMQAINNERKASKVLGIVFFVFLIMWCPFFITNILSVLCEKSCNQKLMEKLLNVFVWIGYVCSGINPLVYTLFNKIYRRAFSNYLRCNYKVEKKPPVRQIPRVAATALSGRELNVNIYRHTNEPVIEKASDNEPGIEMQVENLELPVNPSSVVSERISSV

Test [1] deals with human recombinant 5-HT2C edited receptor (accession number AAF35842.1) (Homo sapiens, UniProt P28335, I156V/N158S/I160V). The test can be described thus: Serotonin 5-HT2C in vitro cellular IPOne agonism assay. The conditions noted are these: read-out: 5HT2C IPONE AGONISM ACTIVITY, CHO-K1 cells, 60 min.
Test [2] concerns the target 5-HT2C edited (accession number AAF35842.1) (Homo sapiens, UniProt P28335, I156V/I160V/N158S). Description: Serotonin 5-HT2C in vitro radioligand binding competition assay. The conditions noted are these: read-out: 5HT2C RADIOLIGAND BINIDNG ACTIVITY, [3H]-DOI radiotracer, membrane extracts.

`CN1CCCc2oc3ccccc3c2C1` [Compound 21, 2-methyl-2,3,4,5-tetrahydro-1H-benzofuro[3,2-c]azepine]: the EC50 in test [1] (benzofurans) lay within 1000 to 10000 nM. Moreover, the IC50 in test [2] (benzofurans) lay within 1000 to 10000 nM.

Regarding `COc1ccc2c3c(sc2c1)CCNCC3` [Compound 35, 8-methoxy-2,3,4,5-tetrahydro-1H-benzo[4,5]thieno[2,3-d]azepine], in test [1] (benzothiophenes), the EC50 is 10 to 100 nM. For the same molecule, in test [2] (benzothiophenes), the IC50 was in the range of 101 to 1000 nM.

Consider `FC(F)(F)c1ccc2c3c(oc2c1)CCNCC3` [Compound 43, 8-(trifluoromethyl)-2,3,4,5-tetrahydro-1H-benzofuro[2,3-d]azepine], for which, in test [1] (benzofurans), the EC50 was in the range of 10 to 100 nM. In test [2] (benzofurans), the IC50 lay within 101 to 1000 nM. As for `COc1ccc2c3c(oc2c1)CCN(C1CCC1)CC3` [Compound 25, 3-cyclobutyl-8-methoxy-2,3,4,5-tetrahydro-1H-benzofuro[2,3-d]azepine], the EC50 in test [1] (benzofurans) was more than 10000 nM. Further, in test [2] (benzofurans), the IC50 was more than 10000 nM.

Consider `Fc1ccc2c3c(oc2c1)CCCNC3` [Compound 6, 8-fluoro-2,3,4,5-tetrahydro-1H-benzofuro[3,2-c]azepine], for which, in test [1] (benzofurans), the EC50 lay in the range of 1000 to 10000 nM. Moreover, the IC50 in test [2] (benzofurans) was 1000 to 10000 nM. With `FC(F)(F)CN1CCc2sc3ccccc3c2CC1` [Compound 69, 3-(2,2,2-trifluoroethyl)-2,3,4,5-tetrahydro-1H-benzo[4,5]thieno[2,3-d]azepine], the EC50 in test [1] (benzothiophenes) was in the range of 1000 to 10000 nM. Moreover, in test [2] (benzothiophenes), the IC50 lay within 1000 to 10000 nM. As for `COc1ccc2c3c(oc2c1)CCCNC3` [Compound 19, 8-methoxy-2,3,4,5-tetrahydro-1H-benzofuro[3,2-c]azepine], the EC50 in test [1] (benzofurans) lay within 1000 to 10000 nM. For the same molecule, the IC50 in test [2] (benzofurans) lay in the range of 1000 to 10000 nM. For the molecule `Fc1cccc2oc3c(c12)CCNCC3` [Compound 10, 10-fluoro-2,3,4,5-tetrahydro-1H-benzofuro[2,3-d]azepine], the EC50 in test [1] (benzofurans) lay in the range of 10 to 100 nM. Further, the IC50 in test [2] (benzofurans) fell in the range of 10 to 100 nM. As to `FC(F)(F)Oc1ccc2c3c(sc2c1)CCNCC3` [Compound 66, 8-(trifluoromethoxy)-2,3,4,5-tetrahydro-1H-benzo[4,5]thieno[2,3-d]azepine], the EC50 in test [1] (benzothiophenes) was in the range of 10 to 100 nM. The IC50 in test [2] (benzothiophenes) was in the range of 10 to 100 nM. `FC(F)(F)Oc1ccc2c3c(oc2c1)CCCNC3` [Compound 49, 8-(trifluoromethoxy)-2,3,4,5-tetrahydro-1H-benzofuro[3,2-c]azepine]: the EC50 in test [1] (benzofurans) fell in the range of 1000 to 10000 nM. In addition, the IC50 in test [2] (benzofurans) lay within 101 to 1000 nM. For the molecule `Fc1ccc2c3c(sc2c1)CCNCC3` [Compound 46, 8-fluoro-2,3,4,5-tetrahydro-1H-benzo[4,5]thieno[2,3-d]azepine], the EC50 in test [1] (benzothiophenes) was less than 10 nM. Also, the IC50 in test [2] (benzothiophenes) was less than 10 nM. Consider `FC(F)(F)Oc1ccc2c3c(oc2c1)CCNCC3` [Compound 44, 8-(trifluoromethoxy)-2,3,4,5-tetrahydro-1H-benzofuro[2,3-d]azepine], for which the IC50 in test [2] (benzofurans) was 101 to 1000 nM.

For `CN1CCc2sc3cc(OCc4ccccc4)ccc3c2CC1` [Compound 79, 8-(benzyloxy)-3-methyl-2,3,4,5-tetrahydro-1H-benzo[4,5]thieno[2,3-d]azepine], the EC50 in test [1] (benzothiophenes) was in the range of 1000 to 10000 nM. For the same molecule, in test [2] (benzothiophenes), the IC50 is 1000 to 10000 nM. With `COc1cccc2oc3c(c12)CCNCC3` [Compound 16, 10-methoxy-2,3,4,5-tetrahydro-1H-benzofuro[2,3-d]azepine], the EC50 in test [1] (benzofurans) is less than 10 nM. Further, the IC50 in test [2] (benzofurans) was less than 10 nM. Take `COc1cccc2oc3c(c12)CN(C1CCC1)CCC3` [Compound 14, 2-cyclobutyl-10-methoxy-2,3,4,5-tetrahydro-1H-benzofuro[3,2-c]azepine]: in test [1] (benzofurans), the EC50 fell in the range of 1000 to 10000 nM. Take `FC(F)(F)Oc1cccc2sc3c(c12)CCNCC3` [Compound 67, 10-(trifluoromethoxy)-2,3,4,5-tetrahydro-1H-benzo[4,5]thieno[2,3-d]azepine]: the EC50 in test [1] (benzothiophenes) was less than 10 nM. The IC50 in test [2] (benzothiophenes) is less than 10 nM. `COc1ccc2c3c(oc2c1)CCCN(C)C3` [Compound 17, 8-methoxy-2-methyl-2,3,4,5-tetrahydro-1H-benzofuro[3,2-c]azepine]: in test [1] (benzofurans), the EC50 lay in the range of 1000 to 10000 nM. In addition, in test [2] (benzofurans), the IC50 is 1000 to 10000 nM. In the case of `c1ccc(COc2ccc3c4c(oc3c2)CCNCC4)cc1` [Compound 45, 8-(benzyloxy)-2,3,4,5-tetrahydro-1H-benzofuro[2,3-d]azepine], in test [1] (benzofurans), the EC50 was 101 to 1000 nM. In addition, the IC50 in test [2] (benzofurans) fell in the range of 101 to 1000 nM.

Regarding `CN1CCCc2oc3cccc(F)c3c2C1` [Compound 4, 10-fluoro-2-methyl-2,3,4,5-tetrahydro-1H-benzofuro[3,2-c]azepine], the EC50 in test [1] (benzofurans) was more than 10000 nM. Besides, the IC50 in test [2] (benzofurans) lay in the range of 1000 to 10000 nM. Take `c1ccc2c3c(sc2c1)CCNCC3` [Compound 65, 2,3,4,5-tetrahydro-1H-benzo[4,5]thieno[2,3-d]azepine]: in test [1] (benzothiophenes), the EC50 was less than 10 nM. Moreover, in test [2] (benzothiophenes), the IC50 was less than 10 nM. Take `c1ccc(COc2cccc3oc4c(c23)CCNCC4)cc1` [Compound 47, 10-(benzyloxy)-2,3,4,5-tetrahydro-1H-benzofuro[2,3-d]azepine]: the EC50 in test [1] (benzofurans) lay in the range of 101 to 1000 nM. In test [2] (benzofurans), the IC50 was in the range of 10 to 100 nM.

On to `FC(F)(F)c1ccc2c3c(oc2c1)CCCNC3` [Compound 48, 8-(trifluoromethyl)-2,3,4,5-tetrahydro-1H-benzofuro[3,2-c]azepine], for which the EC50 in test [1] (benzofurans) was in the range of 1000 to 10000 nM. The IC50 in test [2] (benzofurans) is 101 to 1000 nM. Turning to `c1ccc2c3c(oc2c1)CCNCC3` [Compound 31, 2,3,4,5-tetrahydro-1H-benzofuro[2,3-d]azepine], the EC50 in test [1] (benzofurans) was in the range of 10 to 100 nM. Moreover, in test [2] (benzofurans), the IC50 was 10 to 100 nM. Regarding `Fc1cccc2oc3c(c12)CN(C1CCC1)CCC3` [Compound 1, 2-cyclobutyl-10-fluoro-2,3,4,5-tetrahydro-1H-benzofuro[3,2-c]azepine], the EC50 in test [1] (benzofurans) was more than 10000 nM. For the same molecule, the IC50 in test [2] (benzofurans) lay within 1000 to 10000 nM. In the case of `Fc1cccc2oc3c(c12)CN(CC(F)(F)F)CCC3` [Compound 5, 10-fluoro-2-(2,2,2-trifluoroethyl)-2,3,4,5-tetrahydro-1H-benzofuro[3,2-c]azepine], the EC50 in test [1] (benzofurans) was in the range of 1000 to 10000 nM. For the same molecule, in test [2] (benzofurans), the IC50 lay in the range of 1000 to 10000 nM. For `FC(F)(F)Oc1cccc2sc3c(c12)CCN(C1CCC1)CC3` [Compound 68, 3-cyclobutyl-10-(trifluoromethoxy)-2,3,4,5-tetrahydro-1H-benzo[4,5]thieno[2,3-d]azepine], the EC50 in test [1] (benzothiophenes) lay in the range of 101 to 1000 nM. The IC50 in test [2] (benzothiophenes) was in the range of 101 to 1000 nM. Regarding `Fc1ccc2c3c(sc2c1)CCN(C1CCC1)CC3` [Compound 32, 3-cyclobutyl-8-fluoro-2,3,4,5-tetrahydro-1H-benzo[4,5]thieno[2,3-d]azepine], the EC50 in test [1] (benzothiophenes) lay within 101 to 1000 nM. Besides, in test [2] (benzothiophenes), the IC50 is 101 to 1000 nM. For `COc1ccc2c3c(sc2c1)CCN(C)CC3` [Compound 34, 8-methoxy-3-methyl-2,3,4,5-tetrahydro-1H-benzo[4,5]thieno[2,3-d]azepine], the EC50 in test [1] (benzothiophenes) is 101 to 1000 nM. Take `CN1CCc2oc3cc(OC(F)(F)F)ccc3c2CC1` [Compound 40, 3-methyl-8-(trifluoromethoxy)-2,3,4,5-tetrahydro-1H-benzofuro[2,3-d]azepine]: the EC50 in test [1] (benzofurans) fell in the range of 101 to 1000 nM. In addition, the IC50 in test [2] (benzofurans) fell in the range of 1000 to 10000 nM.

Regarding `CN1CCCc2oc3cc(OCc4ccccc4)ccc3c2C1` [Compound 54, 8-(benzyloxy)-2-methyl-2,3,4,5-tetrahydro-1H-benzofuro[3,2-c]azepine], in test [1] (benzofurans), the EC50 is more than 10000 nM. With `Fc1cccc2oc3c(c12)CNCCC3` [Compound 7, 10-fluoro-2,3,4,5-tetrahydro-1H-benzofuro[3,2-c]azepine], the EC50 in test [1] (benzofurans) lay in the range of 1000 to 10000 nM. Further, the IC50 in test [2] (benzofurans) was in the range of 1000 to 10000 nM. Turning to `FC(F)(F)Oc1ccc2c3c(sc2c1)CCN(C1CCC1)CC3` [Compound 76, 3-cyclobutyl-8-(trifluoromethoxy)-2,3,4,5-tetrahydro-1H-benzo[4,5]thieno[2,3-d]azepine], in test [1] (benzothiophenes), the EC50 was 1000 to 10000 nM. The IC50 in test [2] (benzothiophenes) lay within 1000 to 10000 nM. For the molecule `c1ccc2c3c(oc2c1)CCN(C1CCC1)CC3` [Compound 28, 3-cyclobutyl-2,3,4,5-tetrahydro-1H-benzofuro[2,3-d]azepine], the EC50 in test [1] (benzofurans) was 101 to 1000 nM. In test [2] (benzofurans), the IC50 fell in the range of 1000 to 10000 nM. `Fc1ccc2c3c(oc2c1)CCNCC3` [Compound 24, 8-fluoro-2,3,4,5-tetrahydro-1H-benzofuro[2,3-d]azepine]: the EC50 in test [1] (benzofurans) was in the range of 10 to 100 nM. In addition, the IC50 in test [2] (benzofurans) was 10 to 100 nM. As for `COc1ccc2c3c(oc2c1)CCN(C)CC3` [Compound 26, 8-methoxy-3-methyl-2,3,4,5-tetrahydro-1H-benzofuro[2,3-d]azepine], the EC50 in test [1] (benzofurans) was 1000 to 10000 nM. Also, in test [2] (benzofurans), the IC50 was 101 to 1000 nM. For the molecule `CN1CCc2oc3cccc(F)c3c2CC1` [Compound 3, 10-fluoro-3-methyl-2,3,4,5-tetrahydro-1H-benzofuro[2,3-d]azepine], the EC50 in test [1] (benzofurans) lay in the range of 10 to 100 nM. The IC50 in test [2] (benzofurans) fell in the range of 10 to 100 nM. For the molecule `c1ccc(COc2ccc3c4c(oc3c2)CCCNC4)cc1` [Compound 50, 8-(benzyloxy)-2,3,4,5-tetrahydro-1H-benzofuro[3,2-c]azepine], the EC50 in test [1] (benzofurans) was more than 10000 nM. Besides, the IC50 in test [2] (benzofurans) fell in the range of 101 to 1000 nM. In the case of `c1ccc2c3c(oc2c1)CCCN(C1CCC1)C3` [Compound 20, 2-cyclobutyl-2,3,4,5-tetrahydro-1H-benzofuro[3,2-c]azepine], in test [1] (benzofurans), the EC50 fell in the range of 1000 to 10000 nM. Besides, the IC50 in test [2] (benzofurans) lay in the range of 1000 to 10000 nM. Take `c1ccc2c3c(sc2c1)CCN(C1CCC1)CC3` [Compound 73, 3-cyclobutyl-2,3,4,5-tetrahydro-1H-benzo[4,5]thieno[2,3-d]azepine]: the EC50 in test [1] (benzothiophenes) fell in the range of 101 to 1000 nM. Regarding `CN1CCc2oc3cc(OCc4ccccc4)ccc3c2CC1` [Compound 41, 8-(benzyloxy)-3-methyl-2,3,4,5-tetrahydro-1H-benzofuro[2,3-d]azepine], the EC50 in test [1] (benzofurans) fell in the range of 101 to 1000 nM. In the case of `CN1CCc2sc3cc(OC(F)(F)F)ccc3c2CC1` [Compound 75, 3-methyl-8-(trifluoromethoxy)-2,3,4,5-tetrahydro-1H-benzo[4,5]thieno[2,3-d]azepine], the EC50 in test [1] (benzothiophenes) fell in the range of 101 to 1000 nM.

(Values after US20250051346A1 (priority 2021, published 2025).)
